Data reported in patent EP4650351A1, “INHIBITOR OF COMPLEMENT FACTOR B” (Nanjing Chia Tai Tianqing Pharmaceutical Co., Ltd., priority 2023, dated 2024).

Test system: collagen antibody and lipopolysaccharide-induced arthritis (CAIA)
Experiment: Collagen antibody-induced mouse arthritis model (Experimental Example 4)
Type: in vivo, BALB/c mice
Conditions: Day3; Mean; 20 mg/kg oral twice a day
Protocol: Experimental animals: BALB/c mice, male, 6-8 weeks, 18-20 g; supplier: Beijing Vital River Laboratory Animal Technology Co., Ltd. 1. […] 2. Administration: Table 4. Administration groups and administration schemes [table] The data were analyzed by One-way ANOVA/Dunnett's using Graphpad Prism and by Repeat Measurement ANOVA/Bonferroni using SPSS. P< 0.05 was considered to indicate a significant difference. Arthritis scoring: Starting from the day of modeling, the incidence of arthritis in the limbs of the animals in each group was observed three times a week until the end of the experiment. According to the different degrees of lesions (erythema and swelling), the scoring was carried out according to the standard of 0-4 points. […] Joint swelling: Starting from the day of modeling, the thickness of the left and right foot pads of the animals was measured three times a week using a micrometer (Mitutoyo, 0-25 mm, minimal 0.001 mm) until the end of the experiment.

## CCO[C@H]1CCN(Cc2c(OC)cc(C)c3[nH]ccc23)[C@H](c2ccc(C(=O)O)cc2)C1 [LNP023, reference compound]
  Thickness of foot pads (mm): 1.614 mm
